Chains of the proteins cited; added tags and fusions are not shown. Lines headed by an entry give the natural chain unless they say otherwise; changes in a name come on top.
UniProt Q9H7B4: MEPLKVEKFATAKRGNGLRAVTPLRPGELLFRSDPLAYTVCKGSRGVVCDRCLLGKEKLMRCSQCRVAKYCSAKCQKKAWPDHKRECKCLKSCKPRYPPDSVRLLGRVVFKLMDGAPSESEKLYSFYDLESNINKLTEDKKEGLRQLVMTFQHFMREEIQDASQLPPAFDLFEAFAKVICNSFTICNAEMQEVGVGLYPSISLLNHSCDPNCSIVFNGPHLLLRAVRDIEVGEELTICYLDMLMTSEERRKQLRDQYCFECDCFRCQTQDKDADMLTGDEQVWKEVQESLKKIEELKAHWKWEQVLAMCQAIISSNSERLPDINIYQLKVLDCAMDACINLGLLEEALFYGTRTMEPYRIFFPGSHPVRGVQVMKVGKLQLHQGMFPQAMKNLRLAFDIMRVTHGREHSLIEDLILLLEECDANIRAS

According to patent US10266526B2, “Substituted 1,2,3-triazoles as SMYD inhibitors for treating cancer” (EPIZYME, INC., priority 2014, dated 2019):

Molecular target: SMYD3 (Homo sapiens (Human), UniProt Q9H7B4)
Experiment: SMYD3 cell assay (Trimethyl-MEKK2 In-Cell Western in 293T/17 cells transfected with MEKK2-flag and SMYD3)
Type: cell-based
Conditions: Table 3A; average of n = 1 to n = 50
Source text: Trimethyl-MEKK2-in-Cell Western Assay
MEM/Glutamax medium, Optimem Reduced Serum medium, penicillin-streptomycin, 0.05% trypsin and 1×D-PBS were purchased from Life Technologies, Grand Island, N.Y., USA. PBS-10× was purchased from Ambion, Life Technologies, Grand Island, N.Y., USA. PBS with Tween 20 (PBST (10×)) was purchased from KPL, Gaithersburg, Md., USA. Tet System FBS-approved FBS US Source was purchased from Clontech, Mountain View, Calif., USA. Odyssey blocking buffer, 800CW goat anti-rabbit IgG (H+L) antibody, 680CW Goat anti-mouse IgG (H+L) and Licor Odyssey infrared scanner were purchased from Licor Biosciences, Lincoln, Nebr., USA. […]
Plasmids were prepared for delivery to cells by first mixing 1350 μL Opti-MEM with Fugene (81 μL) in a sterile Eppendorf and incubated for five minutes at room temperature (RT). […] Room temperature MEM+10% Tet system FBS was added and cells were mixed gently, and counted using the Vi-cell. […]
First, the ratio for each well was determined by:
Each plate included fourteen control wells of DMSO only treatment (Minimum Inhibition) as well as fourteen control wells for maximum inhibition (Background). The average of the ratio values for each control type was calculated and used to determine the percent inhibition for each test well in the plate. […] Percent inhibition was calculated (below). […]

- IC50: ≥ 10 µM
Compound: C[C@H]1C[C@@H](NC(=O)c2ccc3c(c2)CC(=O)N3)CCN1C(=O)[C@H]1CC[C@H](N)CC1 [compound 642, N-((2S,4S)-1-((1r,4S)-4-aminocyclohexane-1-carbonyl)-2-methylpiperidin-4-yl)-2-oxoindoline-5-carboxamide]
